The chains behind the UniProt entries cited, without tags or fusion partners.
UniProt P42336, whole entry: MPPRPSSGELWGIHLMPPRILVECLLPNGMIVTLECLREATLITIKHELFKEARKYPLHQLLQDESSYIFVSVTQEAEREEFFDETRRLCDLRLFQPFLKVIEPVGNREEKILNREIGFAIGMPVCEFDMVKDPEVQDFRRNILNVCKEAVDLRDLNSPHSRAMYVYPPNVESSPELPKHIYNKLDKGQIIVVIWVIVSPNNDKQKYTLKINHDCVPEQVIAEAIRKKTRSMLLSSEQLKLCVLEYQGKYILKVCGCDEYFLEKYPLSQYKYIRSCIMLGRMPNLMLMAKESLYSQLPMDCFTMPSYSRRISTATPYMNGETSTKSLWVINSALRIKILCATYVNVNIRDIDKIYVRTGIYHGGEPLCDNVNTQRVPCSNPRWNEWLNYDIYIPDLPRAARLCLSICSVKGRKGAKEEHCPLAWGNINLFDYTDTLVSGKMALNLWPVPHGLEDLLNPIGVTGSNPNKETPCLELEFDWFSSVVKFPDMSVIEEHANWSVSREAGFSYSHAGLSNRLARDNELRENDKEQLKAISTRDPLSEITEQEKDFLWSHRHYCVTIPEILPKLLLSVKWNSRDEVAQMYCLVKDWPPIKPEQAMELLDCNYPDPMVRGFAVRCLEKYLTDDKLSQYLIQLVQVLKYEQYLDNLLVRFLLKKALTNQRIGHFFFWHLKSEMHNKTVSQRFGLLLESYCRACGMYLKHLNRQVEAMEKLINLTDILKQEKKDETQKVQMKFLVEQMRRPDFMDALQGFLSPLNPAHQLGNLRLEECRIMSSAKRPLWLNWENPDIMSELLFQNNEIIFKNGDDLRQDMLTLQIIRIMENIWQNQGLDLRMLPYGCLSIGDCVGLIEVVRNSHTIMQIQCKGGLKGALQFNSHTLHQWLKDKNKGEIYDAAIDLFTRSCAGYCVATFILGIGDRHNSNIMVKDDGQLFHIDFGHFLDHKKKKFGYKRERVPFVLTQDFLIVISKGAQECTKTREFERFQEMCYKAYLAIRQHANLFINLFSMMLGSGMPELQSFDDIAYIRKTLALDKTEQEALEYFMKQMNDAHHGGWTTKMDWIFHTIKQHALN

In patent US9295673B2 (dated 2016):

Target: PI3K α (Homo sapiens, UniProt P42336)
Assay: PI 3-Kinase (human) HTRF assay, PI3K α
Details: read-out: PI3K α IC50

Nc1nc2cc(-c3ccc4ncc(C(=O)NC5CCC(O)CC5)n4c3)ccc2o1 (stereo not shown) [Compound 143]
IC50: < 100 nM
